From patent publication US11891655B2, “Probe for selectively characterizing enzymes involved in xenobiotic metabolism and method of making and using the same” (Battelle Memorial Institute, priority 2017, dated 2024)

Key:
[1] = tested on: GSTs (H site) in mouse liver cytosol
[2] = tested on: GSTs in mouse liver cytosol; details: competitor 25 μM, p≤0.05

| SMILES | competition of GST-ABP-H labeling of mouse liver cytosol (fluorescent bands) ([1]; SDS-PAGE fluorescence) | fold change inhibition of GSH-ABP-G labeling of GSTP1, M4, A3, M1, K1, and M2 [2] | potency in inhibiting GST-ABP-H enzyme labeling compared to S-hexylglutathione ([1]; mouse liver cytosol, 10 μM probe) |
| --- | --- | --- | --- |
| O=C1C(Cl)=C(Cl)C(=O)c2ccccc21 [Dichlon, 2,3 dichloro-1,4-naphthoquinone, reference compound] | decreases in all measurable fluorescent bands | > 2 |  |
| C=C(CC)C(=O)c1ccc(OCC(=O)O)c(Cl)c1Cl [ethacrynic acid] |  |  | ~12 × |
